# Assay results as given in US20260183363A1, “INHIBITION OF LUTEINIZING HORMONE (LH) ACTION AS TREATMENT OF PERIMENOPAUSAL AND POSTMENOPAUSAL SYMPTOMS AND COMPLICATIONS” (RIGSHOSPITALET, priority 2022, published 2026).
# Tests used:
# white adipocytes = assay: RNA seq of white adipocytes exposed to LH; type: cell-based, human
# Excerpt: (§1) The human-derived adipocyte-cell-models used were: hBa (from a subcutaneous depot), human Simpson-Golabi-Behmel syndrome (SGBS) preadipocyte cell strain, and TERT-hWA (from a subcutaneous neck depot). They were propagated and differentiated as described in Example 5.
# (§2) Brown adipocytes were exposed to different dosages of LH and hCG with and without sex steroids in the media and compared with the vehicle samples. RNA was extracted for cDNA synthesis and RNA seq (core facility and Bioinformatics assistance from CPH University) was performed supported by PCR using specific primers. All analyses were analyzed with t-test or ANOVA using the corresponding control/baseline as reference value and every p-value presented was adjusted for multiple comparisons with Dunnett's post hoc test.
# [1] = system: male wild type mice (C57BL/6); assay: Mice treated with LH, cinacalcet or hCG for 10 days; type: in vivo
# Description: Eight weeks old male wild type mice (C57BL/6), caged at Biotest Facility, Trige, Denmark, were treated for 10 days with either: • vehicle (n=12; NaCl 0.9%×1 daily s.c.); • Cinacalcet (n=8; 30 mg/kg, ×1 daily), (Cinacalcet is in a class of medications called calcimimetics which works by signaling the body to produce less parathyroid hormone (PTH) in order to decrease the amount of calcium in the blood); • LH (n=8; 66.7 IU/kg×1 daily s.c.); • LH in combination with Cinacalcet (n=8; 66.7 IU/kg×1 daily s.c+cinacalcet orally 30 mg/kg once daily); or • hCG (n=8; 666.7 IU/kg, every other day, i.p.).
# At termination, blood and urine sampling was performed, animals were sacrificed and body weight was assessed. Serum PTH was measured using commercially available ELISA kit Mouse PTH 1-84 from Immutopics. Plasma and urinary calcium and creatinine was measured using Stanbio LiquiColor (Arzenazo III) product numbers 0155 and 0430, respectively. All analyses of mice serum, urine, and organ weight were analyzed with ANOVA with control/baseline as reference value. Each p-value presented was adjusted for multiple comparisons with Dunnett's post hoc test.
# human kidney tissue = assay: Ex vivo culture of human kidney tissue, qRT-PCR gene expression; type: cell-based; details: 3 or 24 hours culture
# Description: Human kidney tissues from 5 adults (4 men, 1 […]) were cultured. All donors underwent partial nephrectomy due to suspected malignant kidney tumors and a pathologist removed tissues outside the malignant area. Kidney specimens were dissected in small pieces 1 mm^3 and cultured for either 3 or 24 hours in a hanging drop ex vivo model. Tissues were treated with either vehicle (media containing DMEM, insulin-transferrin-selenium, penicillin, streptomycin and 10% fetal bovine serum) or media also containing one of the following: PTH (0.01 pg/mL), LH (1 IU/mL), hCG (1 IU/mL), estradiol (1 nmol/L) or testosterone (50 nmol/L) and subsequently stored at −80° C. for subsequent RNA purification and cDNA synthesis.
# Gene expression profiling was done by qRT-PCR analyzing levels of calcium transporters SLC12A-1, SLC12A-2, TRPV5 as well as calcium-sensing receptor (CASR). The inventors also measured kidney expression of exon 2-4 and 11 of LHCGR using a primer-sequence previously validated by sequencing of the product from both serum and testis tissue. As calcium transporters are differentially expressed in the different parts of the nephron, all samples were standardized according to the expression of Uromodulin (UMOD), a protein located in the thick ascending limb of the loop of Henle and subsequently to MAP3K7 expressed in the distal convoluted tubules and in addition to being standardized to the housekeeping gene, RPS20. Ethical committee approval: H-17004362. All samples were analyzed with ANOVA with control/baseline as reference value and every p-value presented was adjusted for multiple comparisons with Dunnett's post hoc test.
# [2] = system: male wild type mice (C57BL/6); assay: Brown fat mass in mice treated with LH or hCG for 10 days; type: in vivo; details: high and repeated dosing
# Description: Eight weeks old male wild type mice (C57BL/6) caged at Biotest Facility, Trige, Denmark, were treated for 10 days with either vehicle (n=12; NaCl 0.9%×1 daily s.c.), LH (n=8; 66.7 IU/kg×1 daily s.c.), or hCG (n=8; 666.7 IU/kg, every other day, i.p.). At termination, blood and fat sampling was performed, animals were sacrificed and body weight was assessed. Danish Animal Experiments Inspectorate License no. 2019-15-0201-00236. All analyses of mice serum, urine, and organ weight were analyzed with ANOVA with control/baseline as reference value and every p-value presented was adjusted for multiple comparisons with Dunnett's post hoc test.
# TERT cells = assay: UCP1 and DIO2 expression in adipocytes after LH or hCG; type: cell-based, human; details: 48 hours exposure, two doses, compared with vehicle
# Description: The human-derived adipocyte-cell-models used were: hMADS (from a subcutaneous depot), human Simpson-Golabi-Behmel syndrome (SGBS) preadipocyte cell strain, and TERT-hWA (from a subcutaneous neck depot). They were propagated and differentiated as briefly described here: All cells were cultured until two days post-confluence (designated day 0) where they were induced to differentiate in advanced DMEM/F12 supplemented with 2% fetal bovine serum (FBS) (Life Technologies), L-glutamine (2 mM) (Life Technologies), penicillin (62.5 μg/mL), streptomycin (100 μg/mL) Sigma-Aldrich), insulin (5 ug/mL) (Roche), examethasone (1 μM) (Sigma-Aldrich), 3-isobutyl-1-methylxanthine (0.5 mM) (Sigma-Aldrich), rosiglitazone (1 μM) (Cayman Chemical), human cortisol (1 μM) (Sigma-Aldrich) and T3 (1 nM) (Sigma-Aldrich). At day 3, the medium was refreshed with the same medium used at day 0. At day 6 and 9, the cells received Advanced DMEM/F12 supplemented with 2% FBS. At day 12, the adipocytes were defined as mature, and the percentage of differentiated cells was 50-70% based on microscopic inspection irrespective of cell model. RNA was extracted for cDNA synthesis from undifferentiated (designated day 0) and differentiated (day 12) cells and PCR was conducted using specific primers. All analyses were analyzed with student t-test or ANOVA using the corresponding control/baseline as reference value. Every p-value presented was adjusted for multiple comparisons with Dunnett's post hoc test.
# brown adipocytes = assay: RNA seq of brown adipocytes exposed to LH; type: cell-based, human
# Excerpt: as §1, §2
substance,measurement,setting,value
"LH: Luteinizing hormone, heterodimeric glycoprotein hormone produced by gonadotropic cells in the anterior pituitary gland; LHCGR agonist",Aerobic electron transport chain: Direction,white adipocytes; LH vs vehicle,Down
same,Aerobic electron transport chain: Number of genes,white adipocytes; LH vs vehicle,172
same,Aerobic respiration: Direction,white adipocytes; LH vs vehicle,Down
same,Aerobic respiration: Number of genes,white adipocytes; LH vs vehicle,172
same,Fatty acid beta-oxidation: Direction,white adipocytes; LH vs vehicle,Down
same,Fatty acid beta-oxidation: Number of genes,white adipocytes; LH vs vehicle,73
same,Fatty acid catabolic process: Direction,white adipocytes; LH vs vehicle,Down
same,Fatty acid catabolic process: Number of genes,white adipocytes; LH vs vehicle,97
same,Fatty acid oxidation: Direction,white adipocytes; LH vs vehicle,Down
same,Fatty acid oxidation: Number of genes,white adipocytes; LH vs vehicle,95
same,Lipid oxidation: Direction,white adipocytes; LH vs vehicle,Down
same,Lipid oxidation: Number of genes,white adipocytes; LH vs vehicle,97
same,Mitochondrial ATP synthesis coupled electron transport: Direction,white adipocytes; LH vs vehicle,Down
same,Mitochondrial ATP synthesis coupled electron transport: Number of genes,white adipocytes; LH vs vehicle,85
same,"Mitochondrial electron transport, NADH to ubiquinone: Direction",white adipocytes; LH vs vehicle,Down
same,"Mitochondrial electron transport, NADH to ubiquinone: Number of genes",white adipocytes; LH vs vehicle,49
same,Mitochondrial respiratory chain complex assembly: Direction,white adipocytes; LH vs vehicle,Down
same,Mitochondrial respiratory chain complex assembly: Number of genes,white adipocytes; LH vs vehicle,94
same,Oxidative phosphorylation: Direction,white adipocytes; LH vs vehicle,Down
same,Oxidative phosphorylation: Number of genes,white adipocytes; LH vs vehicle,127
same,Positive regulation of cold-induced thermogenesis: Direction,white adipocytes; LH vs vehicle,Down
same,Positive regulation of cold-induced thermogenesis: Number of genes,white adipocytes; LH vs vehicle,78
same,Positive regulation of fatty acid transport: Direction,white adipocytes; LH vs vehicle,Up
same,Positive regulation of fatty acid transport: Number of genes,white adipocytes; LH vs vehicle,18
same,Prostaglandin secretion: Direction,white adipocytes; LH vs vehicle,Up
same,Prostaglandin secretion: Number of genes,white adipocytes; LH vs vehicle,13
same,Regulation of prostaglandin secretion: Direction,white adipocytes; LH vs vehicle,Up
same,Regulation of prostaglandin secretion: Number of genes,white adipocytes; LH vs vehicle,11
same,Respiratory electron transport chain: Direction,white adipocytes; LH vs vehicle,Down
same,Respiratory electron transport chain: Number of genes,white adipocytes; LH vs vehicle,105
same,Thyroid hormone metabolic process: Direction,white adipocytes; LH vs vehicle,Up
same,Thyroid hormone metabolic process: Number of genes,white adipocytes; LH vs vehicle,16
same,genes directly influenced,white adipocytes; white and brown cells,more than 400 genes
same,cold-induced thermogenesis,white adipocytes; white fat cells exposed to high LH,suppressed
same,Bodyweight compared with vehicle-treated mice,[1]; 10 days,borderline higher
same,Urinary creatinine,[1]; 10 days,neither LH+cinacalcet-treated nor LH-treated mice were affected
same,kidney size compared with vehicle,"[1]; 10 days, before and after adjusting for body weight",significantly lower kidney size
same,serum PTH levels,"[1]; 10 days, vehicle 1.0",9.2 pmol/L
same,urinary calcium excretion,"[1]; after 10 days of treatment, vehicle 0.54",0.98 mmol/L
same,"expression levels of CASR and calcium transporters SLC12A-1, SLC12A-2, SLC12A-3",human kidney tissue,no transcriptional changes
same,brown fat mass,[2],reduced brown fat mass significantly
same,DIO2 expression,TERT cells,downregulated
same,UCP1 expression,TERT cells,downregulated
same,Positive regulation of fatty acid transport: Direction,brown adipocytes; LH vs vehicle,Up
same,Positive regulation of fatty acid transport: Number of genes,brown adipocytes; LH vs vehicle,18
same,Response to cold: Direction,brown adipocytes; LH vs vehicle,Down
same,Response to cold: Number of genes,brown adipocytes; LH vs vehicle,44
same,Response to fatty acid: Direction,brown adipocytes; LH vs vehicle,Down
same,Response to fatty acid: Number of genes,brown adipocytes; LH vs vehicle,51
same,cold-induced thermogenesis,brown adipocytes; brown fat cells exposed to high LH,suppressed
